The values that follow are results of earlier work, collected in patent US12281072B2, “Multi-aziridine compound” (priority 2020, dated 2025).

The conditions of this data set: background statement on state-of-the-art aziridines.

In the case of “pentaerythritol tris[3-(1-aziridinyl)propionate [XAMA-7]”, the genotoxic profile entry is on record as “unfavourable genotoxic profile”.
